# Assay results taken from patent US6440987B1, “Antipruritic” (Toray Industries, Inc., priority 1996, dated 2002).
# Experiments:
# [1] = system: scratching behavior induced by Compound 48/80; assay: Scratching behavior induced by intradermal Compound 48/80 in ddY mice; assay type: in vivo; details: s.c. 30 minutes before Compound 48/80 (100 μg/site), dose mg/kg per compound: 2 1.0, 3 0.0057, 5 0.016, 6 0.005, 7 0.005, 8 0.01, 9 1.8, 10 0.46, 11 0.0018, 12 0.07, 13 0.07, 14 0.31, 15 1.88, 16 0.0046, 17 0.0066, 18 0.03, 19 0.03, 20 0.006, 21 0.0003, 22 1.2, 23 0.0069
# [2] = system: scratching behavior induced by nor-BNI; assay: Scratching behavior induced by subcutaneous nor-BNI in ddY mice; assay type: in vivo; details: i.p. 30 minutes before s.c. nor-BNI, counted over 60 minutes, U-50488H 1, 3 or 10 mg/kg, chlorophenylamine 0.3, 1.0 or 3.0 mg/kg
SMILES,Inhibition (%) of scratching behavior [1],"Number of scratching behavior induced by nor-BNI (FIG. 1, in words) [2]"
CN(C(=O)Cc1cccc2occc12)[C@H]1CC[C@@]2(CCCO2)C[C@@H]1N1CCCC1,46%,
CN(C(=O)Cc1cccc2sccc12)[C@H]1CCCC[C@@H]1N1CCCC1,70%,
CN(C(=O)Cc1ccc(Cl)c(Cl)c1)[C@@H]1CCCC[C@H]1N1CCCC1 (relative stereo),,decreased significantly
